# Laboratory results: publication PMC8532158
# Key:
# Test in all cases: yeast surface display affinity sorting with deep sequencing, enrichments normalized to ddG of purified proteins
# [1] = target: bovine alpha-chymotrypsin (Bos taurus) (UniProt P00766)
# [2] = target: bovine trypsin (Bos taurus) (UniProt P00760)
# [3] = target: human mesotrypsin (Homo sapiens) (UniProt P35030)
Substance,ddG [1],ddG [2],ddG [3]
G37M (from UniProt P00974),0.482 kcal/mol,1.36 kcal/mol,-1.07 kcal/mol
G37N (from UniProt P00974),0.36 kcal/mol,2.1 kcal/mol,0.165 kcal/mol
G37P (from UniProt P00974),4.27 kcal/mol,10.9 kcal/mol,1.99 kcal/mol
G37Q (from UniProt P00974),2.64 kcal/mol,3.9 kcal/mol,1.53 kcal/mol
G37R (from UniProt P00974),0.363 kcal/mol,3.4 kcal/mol,1.32 kcal/mol
G37S (from UniProt P00974),3.32 kcal/mol,3.01 kcal/mol,1.78 kcal/mol
G37T (from UniProt P00974),4.57 kcal/mol,4 kcal/mol,1.86 kcal/mol
G37V (from UniProt P00974),3.38 kcal/mol,5.68 kcal/mol,0.951 kcal/mol
G37W (from UniProt P00974),3.06 kcal/mol,5.24 kcal/mol,1.16 kcal/mol
G37Y (from UniProt P00974),2.09 kcal/mol,4.18 kcal/mol,-0.0902 kcal/mol
I18A (from UniProt P00974),1.36 kcal/mol,5.04 kcal/mol,2.05 kcal/mol
I18C (from UniProt P00974),0.414 kcal/mol,4.95 kcal/mol,-0.00349 kcal/mol
I18D (from UniProt P00974),3.31 kcal/mol,4.36 kcal/mol,1.56 kcal/mol
I18E (from UniProt P00974),4.38 kcal/mol,4.14 kcal/mol,0.908 kcal/mol
I18F (from UniProt P00974),-0.849 kcal/mol,1.81 kcal/mol,-1.46 kcal/mol
I18G (from UniProt P00974),2.64 kcal/mol,4.37 kcal/mol,2.09 kcal/mol
I18H (from UniProt P00974),0.699 kcal/mol,3.4 kcal/mol,1.37 kcal/mol
I18K (from UniProt P00974),-0.224 kcal/mol,3.89 kcal/mol,-0.346 kcal/mol
I18L (from UniProt P00974),-0.539 kcal/mol,3.33 kcal/mol,-0.186 kcal/mol
I18M (from UniProt P00974),-0.461 kcal/mol,3.24 kcal/mol,-1.03 kcal/mol
I18N (from UniProt P00974),0.922 kcal/mol,4.24 kcal/mol,1.77 kcal/mol
I18P (from UniProt P00974),3.52 kcal/mol,5.14 kcal/mol,1.78 kcal/mol

Substance,ddG [1],ddG [2],ddG [3]
I18Q (from UniProt P00974),0.598 kcal/mol,3.4 kcal/mol,2.43 kcal/mol
I18R (from UniProt P00974),-1.46 kcal/mol,3.48 kcal/mol,1.18 kcal/mol
I18S (from UniProt P00974),1.04 kcal/mol,4.84 kcal/mol,1.5 kcal/mol
I18T (from UniProt P00974),0.691 kcal/mol,4.57 kcal/mol,1.47 kcal/mol
I18V (from UniProt P00974),0.509 kcal/mol,2.97 kcal/mol,0.0432 kcal/mol
I18W (from UniProt P00974),0.589 kcal/mol,2.53 kcal/mol,0.255 kcal/mol
I18Y (from UniProt P00974),0.906 kcal/mol,2.17 kcal/mol,0.0668 kcal/mol
K15A (from UniProt P00974),4.17 kcal/mol,11.1 kcal/mol,0.801 kcal/mol
K15C (from UniProt P00974),4.09 kcal/mol,11.6 kcal/mol,2.02 kcal/mol
K15D (from UniProt P00974),3.6 kcal/mol,9.44 kcal/mol,1.47 kcal/mol
K15E (from UniProt P00974),2.98 kcal/mol,8.94 kcal/mol,1.56 kcal/mol
K15F (from UniProt P00974),-1.97 kcal/mol,8.29 kcal/mol,1.34 kcal/mol
K15G (from UniProt P00974),4.57 kcal/mol,11 kcal/mol,1.97 kcal/mol
K15H (from UniProt P00974),0.371 kcal/mol,8.36 kcal/mol,1.71 kcal/mol
K15I (from UniProt P00974),3.26 kcal/mol,10.5 kcal/mol,0.509 kcal/mol
K15L (from UniProt P00974),-1.36 kcal/mol,9.41 kcal/mol,2.02 kcal/mol
K15M (from UniProt P00974),-1.57 kcal/mol,8.61 kcal/mol,2 kcal/mol
K15N (from UniProt P00974),1.87 kcal/mol,8.61 kcal/mol,1.48 kcal/mol
K15P (from UniProt P00974),3.48 kcal/mol,9.77 kcal/mol,2.66 kcal/mol
K15Q (from UniProt P00974),0.534 kcal/mol,8.15 kcal/mol,2.25 kcal/mol
K15R (from UniProt P00974),-1.27 kcal/mol,-1.44 kcal/mol,-0.295 kcal/mol
K15S (from UniProt P00974),3.53 kcal/mol,8.76 kcal/mol,1.71 kcal/mol

Substance,ddG [1],ddG [2],ddG [3]
K15T (from UniProt P00974),3.21 kcal/mol,9.61 kcal/mol,2.54 kcal/mol
K15V (from UniProt P00974),4.16 kcal/mol,10.3 kcal/mol,1.82 kcal/mol
K15W (from UniProt P00974),-1.45 kcal/mol,8.74 kcal/mol,1.7 kcal/mol
K15Y (from UniProt P00974),-2.6 kcal/mol,8.96 kcal/mol,1.64 kcal/mol
P13A (from UniProt P00974),0.714 kcal/mol,3.77 kcal/mol,-0.226 kcal/mol
P13C (from UniProt P00974),0.795 kcal/mol,7.04 kcal/mol,1.05 kcal/mol
P13D (from UniProt P00974),1 kcal/mol,4.31 kcal/mol,-0.0265 kcal/mol
P13E (from UniProt P00974),0.949 kcal/mol,4.4 kcal/mol,0.427 kcal/mol
P13F (from UniProt P00974),-0.761 kcal/mol,0.452 kcal/mol,-0.321 kcal/mol
P13G (from UniProt P00974),0.818 kcal/mol,4.27 kcal/mol,1.09 kcal/mol
P13H (from UniProt P00974),0.231 kcal/mol,3.54 kcal/mol,-0.0312 kcal/mol
P13I (from UniProt P00974),-0.938 kcal/mol,1.83 kcal/mol,0.0616 kcal/mol
P13K (from UniProt P00974),0.0266 kcal/mol,3.05 kcal/mol,1.49 kcal/mol
P13L (from UniProt P00974),-0.922 kcal/mol,2.75 kcal/mol,-0.15 kcal/mol
P13M (from UniProt P00974),-0.983 kcal/mol,0.628 kcal/mol,0.00615 kcal/mol
P13N (from UniProt P00974),0.482 kcal/mol,3.64 kcal/mol,0.38 kcal/mol
P13Q (from UniProt P00974),-0.0474 kcal/mol,2.75 kcal/mol,-0.254 kcal/mol
P13R (from UniProt P00974),0.0323 kcal/mol,1.53 kcal/mol,-0.139 kcal/mol
P13S (from UniProt P00974),0.828 kcal/mol,4.04 kcal/mol,0.249 kcal/mol
P13T (from UniProt P00974),0.601 kcal/mol,4.01 kcal/mol,1.06 kcal/mol
P13V (from UniProt P00974),-0.619 kcal/mol,1.68 kcal/mol,-0.808 kcal/mol
P13W (from UniProt P00974),-0.0865 kcal/mol,1.08 kcal/mol,-0.751 kcal/mol

Substance,ddG [1],ddG [2],ddG [3]
P13Y (from UniProt P00974),-0.889 kcal/mol,1.08 kcal/mol,-0.296 kcal/mol
R17A (from UniProt P00974),0.809 kcal/mol,2.18 kcal/mol,-1.54 kcal/mol
R17C (from UniProt P00974),0.744 kcal/mol,3.97 kcal/mol,-1.5 kcal/mol
R17D (from UniProt P00974),4.13 kcal/mol,4.77 kcal/mol,0.603 kcal/mol
R17E (from UniProt P00974),4.39 kcal/mol,5.11 kcal/mol,1.85 kcal/mol
R17F (from UniProt P00974),0.0498 kcal/mol,3.03 kcal/mol,-1.67 kcal/mol
R17G (from UniProt P00974),3.41 kcal/mol,4.16 kcal/mol,-1.77 kcal/mol
R17H (from UniProt P00974),0.585 kcal/mol,3.47 kcal/mol,-1.07 kcal/mol
R17I (from UniProt P00974),0.461 kcal/mol,1.21 kcal/mol,1.62 kcal/mol
R17K (from UniProt P00974),0.709 kcal/mol,4.11 kcal/mol,0.0179 kcal/mol
R17L (from UniProt P00974),-0.217 kcal/mol,-0.314 kcal/mol,-1.42 kcal/mol
R17M (from UniProt P00974),-0.294 kcal/mol,-0.0474 kcal/mol,-1.29 kcal/mol
R17N (from UniProt P00974),1.27 kcal/mol,3.19 kcal/mol,-0.199 kcal/mol
R17P (from UniProt P00974),4.36 kcal/mol,9.82 kcal/mol,1.52 kcal/mol
R17Q (from UniProt P00974),2.66 kcal/mol,3.69 kcal/mol,-0.108 kcal/mol
R17S (from UniProt P00974),0.924 kcal/mol,3.17 kcal/mol,-1 kcal/mol
R17T (from UniProt P00974),3.54 kcal/mol,3.88 kcal/mol,0.484 kcal/mol
R17V (from UniProt P00974),2 kcal/mol,2.33 kcal/mol,0.495 kcal/mol
R17W (from UniProt P00974),0.579 kcal/mol,4.74 kcal/mol,-1.41 kcal/mol
R17Y (from UniProt P00974),0.227 kcal/mol,2.78 kcal/mol,-1.79 kcal/mol
